From PubChem BioAssay (NCI)
Only a part is listed here, and it is no random draw.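 The test compound was applied at a single concentration to cells in 96-well plates for 48 hours, and percent growth was recorded.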 Calls of active or inactive are those of the source. How the source made its calls: active means growth percent below 10; inactive means the rest.

Columns and labels:
Assay in all cases: NCI-60 one-dose screen, 48 h (100 = growth as untreated, 0 = no growth, -100 = all killed)
Details in all cases: 10 µM unless noted
EKVX NSCLC = test system: EKVX NSCLC
SN12C renal = test system: SN12C renal
UO-31 renal = test system: UO-31 renal
TK-10 renal = test system: TK-10 renal
ACHN renal = test system: ACHN renal
CAKI-1 renal = test system: CAKI-1 renal
A498 renal = test system: A498 renal
HL-60(TB) leukemia = test system: HL-60(TB) leukemia
CCRF-CEM leukemia = test system: CCRF-CEM leukemia
MOLT-4 leukemia = test system: MOLT-4 leukemia
SR leukemia = test system: SR leukemia
OVCAR-8 ovarian = test system: OVCAR-8 ovarian
OVCAR-5 ovarian = test system: OVCAR-5 ovarian
OVCAR-4 ovarian = test system: OVCAR-4 ovarian
SK-OV-3 ovarian = test system: SK-OV-3 ovarian
OVCAR-3 ovarian = test system: OVCAR-3 ovarian
HS 578T breast = test system: HS 578T breast
IGROV1 ovarian = test system: IGROV1 ovarian
SK-MEL-2 melanoma = test system: SK-MEL-2 melanoma
RPMI-8226 leukemia = test system: RPMI-8226 leukemia

Measured: growth

CCOC(=O)Nc1cccc([As](=O)(O)O)c1
inactive: EKVX NSCLC 96.4% | SN12C renal 97.9% | UO-31 renal 80.7% | TK-10 renal 91.6% | ACHN renal 94.9% | CAKI-1 renal 35.6% | A498 renal 93.1% | HL-60(TB) leukemia 94.2% | CCRF-CEM leukemia 87.3% | MOLT-4 leukemia 95% | SR leukemia 97.2% | OVCAR-8 ovarian 101% | OVCAR-5 ovarian 125% | OVCAR-4 ovarian 97.6% | SK-OV-3 ovarian 101% | OVCAR-3 ovarian 92.9% | HS 578T breast 94.5%

O=C(Nc1cc([As](=O)(O)O)ccc1O)c1ccccc1
inactive: EKVX NSCLC 121% | SN12C renal 88.4% | UO-31 renal 96.3% | TK-10 renal 133% | ACHN renal 102% | A498 renal 94.6% | HL-60(TB) leukemia 69.7% | CCRF-CEM leukemia 108% | OVCAR-8 ovarian 98.4% | OVCAR-5 ovarian 103% | OVCAR-4 ovarian 106% | SK-OV-3 ovarian 108% | IGROV1 ovarian 117% | OVCAR-3 ovarian 120% | HS 578T breast 112%

NP(=O)(N(CCCl)CCCl)N1CC1 (centres undefined)
inactive: SK-MEL-2 melanoma 95.3% | SN12C renal 103% | UO-31 renal 89.8% | TK-10 renal 91.9% | ACHN renal 99.5% | CAKI-1 renal 95% | A498 renal 103% | HL-60(TB) leukemia 90.5% | MOLT-4 leukemia 81.1% | SR leukemia 84.2% | RPMI-8226 leukemia 96.5% | OVCAR-8 ovarian 101% | OVCAR-5 ovarian 104% | OVCAR-4 ovarian 105% | SK-OV-3 ovarian 109% | IGROV1 ovarian 98.5% | OVCAR-3 ovarian 106%

COc1ccc(C(=O)N(CCCl)CCCl)cc1OC
inactive: SK-MEL-2 melanoma 89.4% | SN12C renal 108% | UO-31 renal 95.7% | TK-10 renal 113% | ACHN renal 97.9% | CAKI-1 renal 97.7% | A498 renal 119% | HL-60(TB) leukemia 80% | MOLT-4 leukemia 83% | SR leukemia 74% | RPMI-8226 leukemia 98.2% | OVCAR-8 ovarian 97.3% | OVCAR-5 ovarian 96.6% | OVCAR-4 ovarian 103% | SK-OV-3 ovarian 104% | IGROV1 ovarian 105% | OVCAR-3 ovarian 109%

O=C1OCCN1P(=O)(Cl)N1CCOC1=O
inactive: EKVX NSCLC 98.3% | SN12C renal 99.3% | UO-31 renal 91% | TK-10 renal 112% | ACHN renal 108% | CAKI-1 renal 98% | A498 renal 103% | HL-60(TB) leukemia 97.4% | CCRF-CEM leukemia 94% | MOLT-4 leukemia 92.2% | SR leukemia 89.7% | RPMI-8226 leukemia 98.8% | OVCAR-8 ovarian 93.6% | OVCAR-5 ovarian 112% | OVCAR-4 ovarian 110% | SK-OV-3 ovarian 98.8% | IGROV1 ovarian 110% | OVCAR-3 ovarian 116% | HS 578T breast 107%

O=[N+]([O-])c1ccc(SSc2ccc([N+](=O)[O-])cc2[N+](=O)[O-])c([N+](=O)[O-])c1
inactive: SK-MEL-2 melanoma 104% | SN12C renal 101% | UO-31 renal 75.9% | CAKI-1 renal 86.1% | A498 renal 95.5% | CCRF-CEM leukemia 29.7% | MOLT-4 leukemia 96.7% | SR leukemia 96.4% | RPMI-8226 leukemia 91% | OVCAR-8 ovarian 99.7% | OVCAR-4 ovarian 103% | SK-OV-3 ovarian 99.8% | IGROV1 ovarian 101% | OVCAR-3 ovarian 112% | HS 578T breast 108%

CCN(CC)C(=O)Oc1ccc(/C=N/NC(N)=S)nc1
inactive: SK-MEL-2 melanoma 77% | SN12C renal 79.2% | UO-31 renal 51.7% | TK-10 renal 67.6% | ACHN renal 62% | A498 renal 115% | HL-60(TB) leukemia 83.8% | CCRF-CEM leukemia 73.9% | MOLT-4 leukemia 78.3% | SR leukemia 48.3% | RPMI-8226 leukemia 86.7% | OVCAR-8 ovarian 63.2% | OVCAR-5 ovarian 84.4% | OVCAR-4 ovarian 59.6% | SK-OV-3 ovarian 75.1% | IGROV1 ovarian 70.8% | OVCAR-3 ovarian 78.3% | HS 578T breast 113%

CCN(CCCl)CC1OC(O)C(O)C1O (centres undefined)
inactive: SK-MEL-2 melanoma 137% | SN12C renal 98.9% | UO-31 renal 101% | TK-10 renal 116% | ACHN renal 101% | CAKI-1 renal 80.8% | A498 renal 104% | HL-60(TB) leukemia 114% | MOLT-4 leukemia 104% | SR leukemia 96.3% | RPMI-8226 leukemia 100% | OVCAR-8 ovarian 102% | OVCAR-5 ovarian 104% | OVCAR-4 ovarian 120% | SK-OV-3 ovarian 109% | IGROV1 ovarian 97.2% | OVCAR-3 ovarian 118% | HS 578T breast 99.4%

O=[N+]([O-])C1C(O)C(O)C([N+](=O)[O-])C(O)C1O (centres undefined)
inactive: SK-MEL-2 melanoma 118% | SN12C renal 92.8% | UO-31 renal 79% | TK-10 renal 112% | ACHN renal 112% | CAKI-1 renal 97% | A498 renal 96.3% | HL-60(TB) leukemia 97.6% | MOLT-4 leukemia 105% | SR leukemia 125% | RPMI-8226 leukemia 106% | OVCAR-8 ovarian 108% | OVCAR-5 ovarian 101% | SK-OV-3 ovarian 104% | IGROV1 ovarian 102% | OVCAR-3 ovarian 111% | HS 578T breast 104%

O=P(CCl)(Sc1ccc(Cl)cc1)N(CCCl)CCCl (centres undefined)
inactive: SK-MEL-2 melanoma 73.3% | SN12C renal 108% | UO-31 renal 79.2% | TK-10 renal 89.6% | ACHN renal 94.5% | CAKI-1 renal 91% | A498 renal 87.6% | HL-60(TB) leukemia 91.1% | MOLT-4 leukemia 82.8% | SR leukemia 86% | RPMI-8226 leukemia 77.6% | OVCAR-8 ovarian 91.2% | OVCAR-5 ovarian 92.9% | OVCAR-4 ovarian 84.6% | SK-OV-3 ovarian 97.5% | IGROV1 ovarian 96.4% | OVCAR-3 ovarian 98.1%

CCN(CC)CCOC(=O)C(O)(c1cccc(OC)c1OC)c1cccc(OC)c1OC
inactive: EKVX NSCLC 111% | SN12C renal 93.8% | UO-31 renal 90.4% | TK-10 renal 90.2% | ACHN renal 103% | CAKI-1 renal 101% | A498 renal 93.6% | HL-60(TB) leukemia 96% | CCRF-CEM leukemia 93.3% | MOLT-4 leukemia 113% | SR leukemia 111% | RPMI-8226 leukemia 99.3% | OVCAR-8 ovarian 92.4% | OVCAR-5 ovarian 109% | OVCAR-4 ovarian 117% | SK-OV-3 ovarian 98.5% | IGROV1 ovarian 102% | OVCAR-3 ovarian 104% | HS 578T breast 93.4%
